Laboratory results as given in PubChem BioAssay AID602363 (Broad Institute, 2012).
Hit rate of the full screen: of about 350,000 compounds, about 450 (0.13%) were called active.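 Rule for the calls: active = replicate mean at a twofold rise or more (about +100% in these data); inactive = the rest.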 The sample as a whole holds a higher share of actives than the screen did.

Experiment: modulators of yeast start codon fidelity, primary screen, whole organism, S. cerevisiae, single point, plate reader (AID 602363);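 note: firefly luciferase made from a UUG start codon reports start codon fidelity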
Conditions: S. cerevisiae UUG-firefly luciferase reporter, luminescence/redox ratio; at 18.7 µM; hits give high values

Activity score, inactive:
O=C(C[C@@H]1C[C@H]2c3cc(NC(=O)NC4CCCCC4)ccc3O[C@H]2[C@H](CO)O1)NCc1ccncc1 1.45%
CCCN1C[C@H](C)[C@H](OC)CN(C)C(=O)c2cc(NC(=O)C3CCOCC3)ccc2OC[C@@H]1C 7.64%
C[C@H](CO)N1C[C@H](C)[C@@H](CN(C)Cc2ccc(Cl)c(Cl)c2)Oc2ccc(NC(=O)Nc3ccc(C(F)(F)F)cc3)cc2CC1=O -6.41%
COc1ccc(S(=O)(=O)N(C)C[C@@H]2OCCCC[C@@H](C)Oc3ccc(NC(=O)c4ccccc4)cc3C(=O)N([C@@H](C)CO)C[C@H]2C)cc1 -7.34%
CO[C@H]1CN(C)C(=O)c2cc(NC(=O)Nc3cccc(F)c3)ccc2OC[C@H](C)N(C(C)=O)C[C@H]1C 2.41%
CCCc1cn(CC[C@@H]2CC[C@@H](NS(=O)(=O)c3ccccc3Cl)[C@@H](CO)O2)nn1 -13.1%
CN1C[C@@H]2[C@H](c3ccccc31)[C@@H](CO)N2C(=O)Nc1ccccc1 -3.49%
C[C@@H]1CN([C@H](C)CO)C(=O)c2cc(NC(=O)c3ccncc3)ccc2O[C@H]1CN(C)C(=O)Nc1ccc(C(F)(F)F)cc1 -1.07%
CCC(=O)N1C[C@@H](C)[C@H](OC)CN(C)C(=O)c2ccc(NC(=O)Nc3ccccc3)cc2OC[C@@H]1C 40.8%
C[C@H]1CCCCO[C@H](CN(C)C(=O)NC2CCCCC2)[C@@H](C)CN([C@@H](C)CO)C(=O)c2cc(NC(=O)Nc3ccc4c(c3)OCO4)ccc2O1 -4.52%
C[C@H]1CCCCO[C@H](CN(C)Cc2ccc(C(F)(F)F)cc2)[C@@H](C)CN([C@@H](C)CO)C(=O)c2cc(NC(=O)C3CCCCC3)ccc2O1 13.7%
CCc1ccc(CN2C(=O)c3ccccc3C2C(=O)NCC2CCCO2)cc1 (stereo not given) -17.4%
O=C(Nc1ccc(Cl)cc1)C1c2cccc[n+]2CC(=O)N1Cc1ccc2c(c1)OCO2 (stereo not given) -9.17%
COc1ccc(S(=O)(=O)Nc2ccc3c(c2)CC(=O)N([C@H](C)CO)C[C@@H](C)[C@H](CN(C)S(=O)(=O)c2c(C)noc2C)O3)cc1 -0.184%
N#C[C@@H]1[C@H](c2ccc(C#Cc3cccc(F)c3)cc2)[C@@H](CO)N1C(=O)C1CCCC1 -38.1%
CN(C)CC(=O)N[C@@H]1CC[C@H](CC(=O)NCc2ccc(Cl)cc2)O[C@H]1CO -7.2%
O=C(NCC[C@@H]1CC[C@H](NC(=O)C2CC2)[C@@H](CO)O1)c1cc(Cl)cc(Cl)c1 4.52%
C[C@@H]1CN([C@H](C)CO)C(=O)c2cc(-c3ccc(C#N)cc3)cnc2O[C@@H]1CN(C)CC1CC1 -0.028%
CO[C@H]1CN(C)C(=O)c2cc(NS(C)(=O)=O)ccc2OC[C@@H](C)N(Cc2ccccc2)C[C@@H]1C 1.29%
CCOC(=O)c1ccccc1NC(=O)COC(=O)CCC(=O)N1CCOCC1 19.5%
CC(=O)Nc1ccccc1OC(=O)N1CCOCC1 -18.2%
C[C@H](CO)N1C[C@H](C)[C@H](CN(C)Cc2ccc(Cl)c(Cl)c2)OCCCC[C@H](C)Oc2ccc(NC(=O)NC3CCCCC3)cc2C1=O -1.13%
CCOCN(C(=O)Cn1c(C(C)O)nc2ccccc21)c1c(C)cccc1CC (stereo not given) -13.4%
Cc1ccccc1OC(=O)Cn1c(C(F)(F)F)nc2ccccc21 -13%
COc1cc(C(=O)NCc2nnc(SCC(=O)c3ccc(Cl)cc3)o2)cc(OC)c1OC -3.27%
COc1ccc2c(C)cc(SCC(=O)NCC3CCCO3)nc2c1 (stereo not given) -4.78%
O=S(=O)(N[C@@H]1CC[C@@H](CCn2cc(-c3ccccn3)nn2)O[C@@H]1CO)c1cccc(Cl)c1 -16.7%
C[C@@H]1CN([C@@H](C)CO)C(=O)c2cccc(NC(=O)Nc3ccc4c(c3)OCO4)c2O[C@@H]1CN(C)C(=O)Nc1ccc(F)cc1 -5.75%
CS(=O)(=O)Nc1ccc2c(c1)[C@H]1C[C@@H](CC(=O)N3CCOCC3)O[C@@H](CO)[C@H]1O2 -23.5%
C[C@H](CO)N1C[C@H](C)[C@@H](CN(C)S(C)(=O)=O)Oc2cc(C#CC3CC3)ccc2S1(=O)=O 13.1%
O=C(Nc1ccccc1N1CCCC1)c1ccc2ccccc2c1 -12.9%
O=C(NC(=S)Nc1ccccc1N1CCCCC1)c1ccc(F)cc1 -15.2%
C[C@@H]1CCCCO[C@H](CN(C)Cc2ccccc2)[C@@H](C)CN([C@@H](C)CO)C(=O)c2cc(NC(=O)Nc3ccc(F)cc3)ccc2O1 33.7%
C[C@H](CO)N1C[C@H](C)[C@@H](CN(C)C)Oc2c(NC(=O)Nc3ccc(F)cc3)cccc2C1=O 17.5%
CC(C)C#Cc1ccc2c(c1)O[C@H](CN(C)Cc1ccccn1)[C@H](C)CN([C@H](C)CO)S2(=O)=O -7.68%
CO[C@H]1CN(C)C(=O)c2cc(NC(=O)C3CCCCC3)ccc2OC[C@H](C)N(C(=O)c2ccccc2)C[C@H]1C -6.56%
C[C@H](CO)N1C[C@H](C)[C@H](CN(C)S(=O)(=O)c2cn(C)cn2)Oc2c(NC(=O)C3CCOCC3)cccc2C1=O -12.8%
COc1ccc(NC(=O)N(C)C[C@H]2OCCCC[C@@H](C)Oc3ccc(NC(=O)NC4CCCCC4)cc3C(=O)N([C@H](C)CO)C[C@H]2C)cc1 21.6%
COc1ccc(NC(=O)N(C)C[C@@H]2OCCCC[C@@H](C)Oc3ccc(NC(=O)NC4CCCCC4)cc3C(=O)N([C@H](C)CO)C[C@@H]2C)cc1 2.02%

Activity score, active:
CC1CCC(NC(=O)C2c3ccccc3C(=O)N2Cc2ccc3c(c2)OCO3)CC1 (stereo not given) 619%
CC(=O)Nc1ccccc1-c1cn(CC(=O)N2CCOCC2)nn1 127%
CCc1cccc(C)c1N(C(=O)Cn1c(CO)nc2ccccc21)C(C)COC (stereo not given) 593%
O=C(COc1ccc(Cl)cc1)NCc1nnc(SCC(=O)NCC2CCCO2)o1 (stereo not given) 199%
c1ccc(-n2cccc2)c(N2CCCCC2)c1 101%
COc1ccc(NC(=O)N(C)C[C@H]2OCCCC[C@@H](C)Oc3ccc(NC(=O)NC4CCCCC4)cc3C(=O)N([C@@H](C)CO)C[C@H]2C)cc1 107%
